One compound from patent publication US7691420B2, “Compositions for the treatment and prevention of diabetes mellitus” (priority 2003, dated 2010) can be followed below.

SMILES strings stand for the structures. Marks after values point to notes of the source that are not given here.

In the test the test system is C57BLKS/J db/db mice. The test is described as follows: Oral glucose tolerance test and fasted state glucose in db/db mice after 4 weeks. It is filed as in vivo. The following applies: 1% EGCG and/or 0.038% rosiglitazone in diet, oral glucose load 1 g/kg, blood glucose curve 0-180 minutes. How it is done:
This model of late type 2 diabetes with severe hyperglycemia and obesity is widely used to determine the efficacy of anti-diabetic and anti-obesity compounds.
Male db/db mice were obtained from Jackson Laboratory (Bar Harbor, Me., USA). Adult mice aged 8 weeks were used in the experiment. Mice were housed individually in plastic cages with bedding and allowed free access to standard rodent food and tap water. The animal rooms were controlled for temperature (24° C.), humidity (55%), and light (12-h light-dark cycle). The animals were randomized into four groups. […] Body weight and food intake were determined over the course of the study. Total adipose tissue weight was determined by NMR. After four weeks of treatment an oral glucose tolerance test was carried out after an overnight fasting period. The blood glucose levels were measured before (fasted state glucose levels) application of an oral glucose load (1 g/kg body weight) and after 15, 30, 45, 60, 90, 120, 150 and 180 minutes. Area under the curve (AUC) was calculated from the resulting blood glucose curves and served as an indicator of glucose tolerance. At the end of the study, fed state levels of glucose, triglycerides and free fatty acids were determined in plasma. All data are expressed as means for animals in each group.

Consider `CN(CCOc1ccc(CC2SC(=O)NC2=O)cc1)c1ccccn1` (stereo not shown) [Rosiglitazone, rosiglitazone, reference compound], for which the AUC is listed as 35185.0*.
